Source: patent publication US20250327033A1, “Methods of Expanding Cholangiocytes” (priority 2021, published 2025)

The chains behind the UniProt entries cited, without tags or fusion partners. Where a name states a change or a piece, a line headed by the entry shows the natural chain unless it says otherwise.
UniProt Q96RI1: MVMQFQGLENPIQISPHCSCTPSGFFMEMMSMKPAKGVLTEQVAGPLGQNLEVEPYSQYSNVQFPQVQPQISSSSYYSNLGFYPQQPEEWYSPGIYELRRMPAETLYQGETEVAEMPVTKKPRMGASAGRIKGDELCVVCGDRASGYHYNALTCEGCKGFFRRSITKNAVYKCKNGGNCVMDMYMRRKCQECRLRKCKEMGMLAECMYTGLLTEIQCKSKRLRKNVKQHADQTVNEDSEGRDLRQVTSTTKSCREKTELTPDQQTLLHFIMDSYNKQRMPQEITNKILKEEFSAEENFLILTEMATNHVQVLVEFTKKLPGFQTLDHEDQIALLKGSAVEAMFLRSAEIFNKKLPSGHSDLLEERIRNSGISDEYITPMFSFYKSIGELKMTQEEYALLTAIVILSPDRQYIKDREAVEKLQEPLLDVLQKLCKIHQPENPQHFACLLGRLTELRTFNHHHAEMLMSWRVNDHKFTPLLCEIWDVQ

Biological target: T1, Farnesoid X receptor (FXR) (Homo sapiens, UniProt Q96RI1)
T1 sequence (Q96RI1 1-476 isoform Q96RI1-1): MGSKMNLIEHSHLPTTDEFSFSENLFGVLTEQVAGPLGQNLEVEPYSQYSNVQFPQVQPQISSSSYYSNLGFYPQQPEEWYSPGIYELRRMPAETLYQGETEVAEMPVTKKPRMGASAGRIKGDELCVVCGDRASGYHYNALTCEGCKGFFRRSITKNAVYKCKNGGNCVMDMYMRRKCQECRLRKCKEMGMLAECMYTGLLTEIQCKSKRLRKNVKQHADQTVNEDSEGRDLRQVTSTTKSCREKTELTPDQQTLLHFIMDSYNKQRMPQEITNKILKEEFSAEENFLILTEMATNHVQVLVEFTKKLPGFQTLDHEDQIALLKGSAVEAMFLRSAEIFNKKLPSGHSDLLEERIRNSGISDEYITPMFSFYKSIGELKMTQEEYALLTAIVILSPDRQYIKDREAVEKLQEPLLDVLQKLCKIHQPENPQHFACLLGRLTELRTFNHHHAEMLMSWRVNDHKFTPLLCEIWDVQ
Conditions: organoids, 10 μM, 72 hours

SMILES: C/C=C1\C(=O)C[C@H]2[C@@H]3CCC4=CC(=O)CC[C@]4(C)[C@H]3CC[C@]12C [z-22 guggulsterone, Z-guggulsterone]
- effect on the Farnesoid X receptor (FXR): inhibition of the Farnesoid X receptor (FXR)
